According to patent US11285169B2, “Methods for modulating chemotherapeutic cytotoxicity” (The United States of America, as represented by the …, priority 2013, dated 2022):

Experiments:
WT Jurkat cells [1] = conditions: 48 hours, 10^-9 to 10^-4 M, CellTiter-Glo
[2] = tested on: CD47 deficient (CD47 KO) Jurkat T cells; conditions: for Maximal Response CD47 KO (RLU): CD47 KO Jurkat T cells, 48 hours, 10^-9 to 10^-4 M, CellTiter-Glo
WT Jurkat cells [3] = test: cells; conditions: Homo sapiens, 48 h, read-out: AC50 (μM) WT
[4] = tested on: CD47 deficient (CD47 KO) Jurkat T cells; test: cells; conditions: Homo sapiens, 48 h, read-out: AC50 (μM) CD47 KO

CCCc1cc(=O)[nH]c(=S)[nH]1 [Propylthiouracil]
Maximal Response WT (RLU) (WT Jurkat cells [1]): 82.824 RLU

CS(=O)(=O)Nc1ccc([N+](=O)[O-])cc1Oc1ccccc1 [Nimesulide]
Maximal Response WT (RLU) (WT Jurkat cells [1]): 17.364 RLU
Maximal Response CD47 KO (RLU) [2]: 82.485 RLU

Cn1cc(-c2cnn3c(N)c(Br)c([C@@H]4CCCNC4)nc23)cn1 [SCH-900776]
Δ LogAC50 CD47KO-WT [2]: 0.6
AC50 (WT Jurkat cells [3]): 0.372 µM
AC50 [4]: 1.48 µM

NNCCc1ccccc1 [Phenelzine]
Maximal Response WT (RLU) (WT Jurkat cells [1]): 13.556 RLU
Maximal Response CD47 KO (RLU) [2]: 51.795 RLU

NC(=O)c1cccc2cn(-c3ccc([C@@H]4CCCNC4)cc3)nc12 [Niraparib]
Maximal Response WT (RLU) (WT Jurkat cells [1]): 48.69 RLU
Maximal Response CD47 KO (RLU) [2]: 81.286 RLU

FC(F)(F)c1ccc(/C=C/c2nc(COc3ccc(CCCCn4ccnn4)cc3)co2)cc1 [Mubritinib]
Maximal Response WT (RLU) (WT Jurkat cells [1]): 17.243 RLU
